Results reported in ChEMBL document CHEMBL4431320 (J Med Chem, 2016).

Chains of the proteins cited; added tags and fusions are not shown.
UniProt P06276, whole entry: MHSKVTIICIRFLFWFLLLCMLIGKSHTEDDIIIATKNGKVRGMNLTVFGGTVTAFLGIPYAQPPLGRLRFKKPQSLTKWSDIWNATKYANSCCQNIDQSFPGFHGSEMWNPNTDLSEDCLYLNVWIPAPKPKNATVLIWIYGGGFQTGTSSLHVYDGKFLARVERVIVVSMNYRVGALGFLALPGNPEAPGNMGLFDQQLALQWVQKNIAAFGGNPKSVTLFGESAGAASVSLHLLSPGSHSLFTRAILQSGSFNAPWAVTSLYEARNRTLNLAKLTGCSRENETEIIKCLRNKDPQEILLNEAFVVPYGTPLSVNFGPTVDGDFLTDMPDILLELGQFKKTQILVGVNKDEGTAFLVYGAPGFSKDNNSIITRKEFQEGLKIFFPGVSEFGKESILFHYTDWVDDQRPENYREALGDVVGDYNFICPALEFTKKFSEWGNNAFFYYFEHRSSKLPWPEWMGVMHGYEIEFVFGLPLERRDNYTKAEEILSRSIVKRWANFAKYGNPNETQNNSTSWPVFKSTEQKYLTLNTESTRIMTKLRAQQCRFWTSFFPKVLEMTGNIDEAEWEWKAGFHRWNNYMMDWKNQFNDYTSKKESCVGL

Biological target: Cholinesterase (Homo sapiens, UniProt P06276)

CCN(C)C(=O)Oc1cccc([C@H](C)N(C)C)c1 [RIVASTIGMINE]
IC50: 803 nM
